Measurements reported in ChEMBL document CHEMBL5385914 (J Med Chem, 2024).

By UniProt entry, the sequences of proteins in these tests, tags left out. Where a name states a change or a piece, a line headed by the entry shows the natural chain unless it says otherwise.
UniProt P68371: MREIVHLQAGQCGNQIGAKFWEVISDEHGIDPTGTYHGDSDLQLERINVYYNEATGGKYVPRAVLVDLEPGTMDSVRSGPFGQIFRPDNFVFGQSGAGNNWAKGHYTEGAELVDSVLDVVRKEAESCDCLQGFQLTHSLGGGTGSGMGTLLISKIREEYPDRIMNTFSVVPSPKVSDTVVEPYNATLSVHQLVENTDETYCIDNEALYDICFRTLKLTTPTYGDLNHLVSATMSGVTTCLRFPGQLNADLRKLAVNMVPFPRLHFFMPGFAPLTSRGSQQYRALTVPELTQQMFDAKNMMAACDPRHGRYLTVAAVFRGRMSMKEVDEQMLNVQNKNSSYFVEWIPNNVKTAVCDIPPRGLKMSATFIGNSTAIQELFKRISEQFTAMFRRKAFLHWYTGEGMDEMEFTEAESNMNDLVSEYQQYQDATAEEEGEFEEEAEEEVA
UniProt Q9H4B7: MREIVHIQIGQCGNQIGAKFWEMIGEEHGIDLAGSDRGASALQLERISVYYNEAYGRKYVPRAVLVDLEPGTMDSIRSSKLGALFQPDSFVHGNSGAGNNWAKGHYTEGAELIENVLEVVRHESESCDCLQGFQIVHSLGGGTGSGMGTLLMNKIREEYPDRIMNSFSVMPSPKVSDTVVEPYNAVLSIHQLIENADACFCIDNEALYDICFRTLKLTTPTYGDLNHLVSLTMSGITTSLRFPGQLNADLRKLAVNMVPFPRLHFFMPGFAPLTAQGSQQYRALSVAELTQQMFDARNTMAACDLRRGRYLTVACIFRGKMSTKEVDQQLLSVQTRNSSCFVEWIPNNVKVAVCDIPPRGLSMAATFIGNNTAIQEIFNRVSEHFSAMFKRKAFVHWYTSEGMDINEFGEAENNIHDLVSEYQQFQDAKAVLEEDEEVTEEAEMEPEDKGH
UniProt P0DPH7: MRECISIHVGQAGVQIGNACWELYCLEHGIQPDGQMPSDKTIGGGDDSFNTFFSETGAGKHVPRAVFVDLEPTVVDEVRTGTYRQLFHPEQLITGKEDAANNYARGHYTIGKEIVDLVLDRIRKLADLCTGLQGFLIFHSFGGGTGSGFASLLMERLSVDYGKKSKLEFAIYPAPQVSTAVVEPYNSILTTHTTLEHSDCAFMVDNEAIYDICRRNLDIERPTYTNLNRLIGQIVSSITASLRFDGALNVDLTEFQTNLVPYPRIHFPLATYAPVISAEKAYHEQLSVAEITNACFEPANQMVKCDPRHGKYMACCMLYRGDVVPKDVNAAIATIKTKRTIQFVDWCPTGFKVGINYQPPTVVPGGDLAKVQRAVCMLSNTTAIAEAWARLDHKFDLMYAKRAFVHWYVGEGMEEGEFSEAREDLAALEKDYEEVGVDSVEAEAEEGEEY
UniProt P68366: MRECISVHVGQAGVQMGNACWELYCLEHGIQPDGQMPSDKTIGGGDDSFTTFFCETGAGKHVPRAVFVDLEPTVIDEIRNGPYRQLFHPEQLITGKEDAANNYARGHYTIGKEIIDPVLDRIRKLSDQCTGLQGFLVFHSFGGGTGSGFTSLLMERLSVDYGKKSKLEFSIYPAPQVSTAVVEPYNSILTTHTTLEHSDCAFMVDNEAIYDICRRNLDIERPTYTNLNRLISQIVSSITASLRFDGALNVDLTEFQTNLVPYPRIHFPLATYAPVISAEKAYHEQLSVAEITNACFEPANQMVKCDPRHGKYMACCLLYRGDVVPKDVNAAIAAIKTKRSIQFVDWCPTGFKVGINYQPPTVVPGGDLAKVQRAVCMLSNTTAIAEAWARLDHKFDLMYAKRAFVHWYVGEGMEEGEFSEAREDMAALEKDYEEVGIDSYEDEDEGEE
UniProt Q13509: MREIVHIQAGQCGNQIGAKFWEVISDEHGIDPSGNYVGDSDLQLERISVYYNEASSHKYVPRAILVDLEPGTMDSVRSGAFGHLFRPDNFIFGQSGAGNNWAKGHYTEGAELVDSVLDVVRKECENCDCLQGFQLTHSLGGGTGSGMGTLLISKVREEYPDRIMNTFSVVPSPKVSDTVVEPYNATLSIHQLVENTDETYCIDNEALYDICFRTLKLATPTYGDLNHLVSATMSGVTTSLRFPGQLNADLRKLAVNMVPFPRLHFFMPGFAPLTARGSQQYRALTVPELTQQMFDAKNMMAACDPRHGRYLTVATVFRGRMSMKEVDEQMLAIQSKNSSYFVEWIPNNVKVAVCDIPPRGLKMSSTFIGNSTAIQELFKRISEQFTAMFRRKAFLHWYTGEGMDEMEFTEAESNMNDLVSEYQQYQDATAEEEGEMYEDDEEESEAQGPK
UniProt Q71U36: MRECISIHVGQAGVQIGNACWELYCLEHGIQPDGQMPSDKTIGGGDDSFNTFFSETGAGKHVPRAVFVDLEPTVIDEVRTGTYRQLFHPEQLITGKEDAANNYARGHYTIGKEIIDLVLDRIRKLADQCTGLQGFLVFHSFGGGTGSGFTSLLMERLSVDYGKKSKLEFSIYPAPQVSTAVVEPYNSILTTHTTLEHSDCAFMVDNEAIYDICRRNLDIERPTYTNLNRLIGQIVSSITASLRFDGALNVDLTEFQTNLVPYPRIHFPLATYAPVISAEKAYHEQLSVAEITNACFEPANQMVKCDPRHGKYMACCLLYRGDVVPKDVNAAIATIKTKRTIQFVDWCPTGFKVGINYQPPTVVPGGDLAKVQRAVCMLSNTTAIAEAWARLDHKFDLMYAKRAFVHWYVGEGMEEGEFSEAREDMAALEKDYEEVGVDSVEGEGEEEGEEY
UniProt P04350: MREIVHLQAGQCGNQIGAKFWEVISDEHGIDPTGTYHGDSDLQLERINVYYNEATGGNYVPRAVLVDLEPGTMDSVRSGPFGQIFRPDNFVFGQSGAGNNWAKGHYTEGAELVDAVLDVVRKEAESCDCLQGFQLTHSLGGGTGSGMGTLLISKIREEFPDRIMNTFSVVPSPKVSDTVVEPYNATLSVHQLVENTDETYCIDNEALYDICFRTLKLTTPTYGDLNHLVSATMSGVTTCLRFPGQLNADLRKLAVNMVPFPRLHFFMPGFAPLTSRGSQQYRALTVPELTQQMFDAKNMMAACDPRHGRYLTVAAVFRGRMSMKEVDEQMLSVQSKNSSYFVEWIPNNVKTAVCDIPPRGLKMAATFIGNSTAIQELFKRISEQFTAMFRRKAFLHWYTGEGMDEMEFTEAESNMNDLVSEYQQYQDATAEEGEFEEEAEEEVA
UniProt Q3ZCM7: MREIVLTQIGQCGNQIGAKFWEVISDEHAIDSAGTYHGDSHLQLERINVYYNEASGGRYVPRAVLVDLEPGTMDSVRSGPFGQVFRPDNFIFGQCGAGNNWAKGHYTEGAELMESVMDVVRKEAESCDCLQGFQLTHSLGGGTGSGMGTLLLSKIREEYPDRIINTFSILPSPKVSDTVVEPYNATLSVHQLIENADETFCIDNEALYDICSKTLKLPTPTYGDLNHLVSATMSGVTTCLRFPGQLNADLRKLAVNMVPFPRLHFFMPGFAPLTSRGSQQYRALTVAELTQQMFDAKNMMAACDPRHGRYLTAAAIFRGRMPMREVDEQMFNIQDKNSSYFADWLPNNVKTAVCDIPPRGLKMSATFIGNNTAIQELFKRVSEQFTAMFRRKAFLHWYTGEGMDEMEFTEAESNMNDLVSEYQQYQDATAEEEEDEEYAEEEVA
UniProt P68363: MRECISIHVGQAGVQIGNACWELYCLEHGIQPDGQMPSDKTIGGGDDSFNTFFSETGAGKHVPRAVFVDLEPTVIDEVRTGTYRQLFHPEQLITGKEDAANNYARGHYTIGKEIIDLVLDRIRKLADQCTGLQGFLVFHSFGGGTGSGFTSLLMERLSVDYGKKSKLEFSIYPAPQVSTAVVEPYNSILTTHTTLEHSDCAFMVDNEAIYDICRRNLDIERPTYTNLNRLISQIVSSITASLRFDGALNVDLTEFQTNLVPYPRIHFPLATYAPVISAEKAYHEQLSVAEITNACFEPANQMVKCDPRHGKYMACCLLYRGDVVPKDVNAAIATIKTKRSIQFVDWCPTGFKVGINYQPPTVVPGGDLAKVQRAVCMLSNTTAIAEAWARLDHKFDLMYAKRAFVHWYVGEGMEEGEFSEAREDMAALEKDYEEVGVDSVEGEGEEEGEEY
UniProt Q9BQE3: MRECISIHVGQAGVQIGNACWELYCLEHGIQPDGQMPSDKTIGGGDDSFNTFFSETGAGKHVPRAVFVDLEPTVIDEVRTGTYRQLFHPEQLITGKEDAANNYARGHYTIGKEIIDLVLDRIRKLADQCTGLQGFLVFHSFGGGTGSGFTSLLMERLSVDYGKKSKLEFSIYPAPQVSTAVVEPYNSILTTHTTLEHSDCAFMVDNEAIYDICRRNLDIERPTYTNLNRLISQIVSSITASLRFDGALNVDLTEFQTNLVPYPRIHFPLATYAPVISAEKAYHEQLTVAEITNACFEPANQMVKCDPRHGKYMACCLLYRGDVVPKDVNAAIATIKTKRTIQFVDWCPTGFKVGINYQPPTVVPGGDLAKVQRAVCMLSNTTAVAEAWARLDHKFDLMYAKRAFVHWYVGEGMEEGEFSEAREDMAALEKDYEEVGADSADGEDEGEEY
UniProt Q6PEY2: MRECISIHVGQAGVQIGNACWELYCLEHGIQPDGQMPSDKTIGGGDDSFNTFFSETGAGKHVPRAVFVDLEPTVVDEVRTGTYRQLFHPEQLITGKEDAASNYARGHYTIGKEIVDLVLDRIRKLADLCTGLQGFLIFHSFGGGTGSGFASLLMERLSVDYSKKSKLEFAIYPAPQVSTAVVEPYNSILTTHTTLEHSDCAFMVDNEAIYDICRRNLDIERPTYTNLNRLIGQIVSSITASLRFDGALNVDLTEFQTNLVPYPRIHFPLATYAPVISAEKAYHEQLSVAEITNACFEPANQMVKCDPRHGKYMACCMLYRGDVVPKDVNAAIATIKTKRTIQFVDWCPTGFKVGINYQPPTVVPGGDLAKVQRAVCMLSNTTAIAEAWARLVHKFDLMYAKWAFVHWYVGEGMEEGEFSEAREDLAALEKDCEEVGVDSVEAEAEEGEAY
UniProt Q13885: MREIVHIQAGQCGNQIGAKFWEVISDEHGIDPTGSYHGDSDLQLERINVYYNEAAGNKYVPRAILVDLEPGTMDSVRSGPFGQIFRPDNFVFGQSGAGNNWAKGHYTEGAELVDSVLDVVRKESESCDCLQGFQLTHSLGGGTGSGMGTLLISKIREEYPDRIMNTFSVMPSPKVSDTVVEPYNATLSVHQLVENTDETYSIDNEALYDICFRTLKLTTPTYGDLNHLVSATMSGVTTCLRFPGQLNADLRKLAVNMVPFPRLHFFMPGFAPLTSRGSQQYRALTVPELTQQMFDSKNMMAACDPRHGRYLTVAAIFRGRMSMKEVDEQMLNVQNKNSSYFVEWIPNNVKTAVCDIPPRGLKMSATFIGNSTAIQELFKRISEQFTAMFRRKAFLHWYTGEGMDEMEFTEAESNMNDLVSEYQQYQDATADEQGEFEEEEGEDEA
UniProt Q9BVA1: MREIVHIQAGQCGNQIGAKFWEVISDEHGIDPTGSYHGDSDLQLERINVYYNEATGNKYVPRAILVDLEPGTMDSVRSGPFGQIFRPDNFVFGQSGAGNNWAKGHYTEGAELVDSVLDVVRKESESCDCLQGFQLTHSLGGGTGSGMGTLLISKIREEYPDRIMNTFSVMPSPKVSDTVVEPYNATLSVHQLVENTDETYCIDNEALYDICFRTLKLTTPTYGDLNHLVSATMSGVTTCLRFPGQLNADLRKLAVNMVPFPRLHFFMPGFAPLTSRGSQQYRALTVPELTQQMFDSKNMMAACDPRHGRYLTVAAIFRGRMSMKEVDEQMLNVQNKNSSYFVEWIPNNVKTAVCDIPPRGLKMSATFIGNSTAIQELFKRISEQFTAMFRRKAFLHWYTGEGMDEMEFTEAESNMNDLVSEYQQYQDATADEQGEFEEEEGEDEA
UniProt Q9BUF5: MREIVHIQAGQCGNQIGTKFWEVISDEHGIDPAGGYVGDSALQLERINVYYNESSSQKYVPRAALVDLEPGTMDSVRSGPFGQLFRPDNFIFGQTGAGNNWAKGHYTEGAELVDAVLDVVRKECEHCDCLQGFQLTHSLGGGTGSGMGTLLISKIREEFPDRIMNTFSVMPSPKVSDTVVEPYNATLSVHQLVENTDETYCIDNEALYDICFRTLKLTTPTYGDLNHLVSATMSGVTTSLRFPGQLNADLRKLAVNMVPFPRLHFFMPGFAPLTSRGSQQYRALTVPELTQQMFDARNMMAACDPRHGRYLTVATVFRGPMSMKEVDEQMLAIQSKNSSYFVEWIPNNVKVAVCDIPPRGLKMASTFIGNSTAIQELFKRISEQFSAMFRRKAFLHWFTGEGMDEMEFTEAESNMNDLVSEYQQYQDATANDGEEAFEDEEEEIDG

What was measured:
Tubulin (Homo sapiens) = Tubulin (Homo sapiens) (UniProt P68371+Q9H4B7+P0DPH7+P68366+Q13509+Q71U36+P04350+Q3ZCM7+P07437+P68363+Q9BQE3+Q6PEY2+Q13885+Q9BVA1+Q9BUF5)
Tubulin (Bos taurus) [1] = molecular target: T1, Tubulin (Bos taurus) (UniProt Q6B856+Q862L2+Q862F3); test: Binding affinity to calf brain tubulin colchicine binding site assessed as retention half time at 3 uM incubated for 30 mins by fluorescence based photon-counting instrument
Tubulin (Bos taurus) [2] = molecular target: T1, Tubulin (Bos taurus); test: Binding affinity to calf brain tubulin colchicine binding site assessed as Koff at 3 uM incubated for 30 mins by fluorescence based photon-counting instrument

Ka (Tubulin (Homo sapiens))	SMILES	T1/2 (Tubulin (Bos taurus) [1]) [min]	K (Tubulin (Bos taurus) [2])
7.1 10^6/M	COCc1cc2cccc(NC(C)=C3C(=O)CC(c4ccccc4)CC3=O)c2o1 (stereo not drawn)	–	–
–	CCC[C@@H](NC(=O)[C@]1(C)CSC(/C(C)=N/O)=N1)c1cc(OCC2CC2)cc(=O)o1	19	5.6 10^-4/s
